{
  "source": "patent US20130045484A1",
  "about": "“METHODS AND KITS FOR DETERMINING THE TOXICITY OF AN AGENT” (priority 2010, published 2013)",
  "key": {"superoxide dismutase": {"tested_on": "superoxide dismutase", "experiment": "Superoxide Dismutase (SOD) (Oxidative Stress) Assay", "type": "cell-based, human", "details": "mean superoxide dismutase response (450 nm) ÷ mean ATP response × 10^7; HEK 293; mannitol 1 mg/ml, doxorubicin 1 μg/ml, MMS 50 μg/ml, phenformin 250 μg/ml", "protocol": "The assay was conducted using the same cell containing sample(s) as the p53R2 Renilla Luciferase Reporter Gene and the Firefly Luciferase Bioluminescent ATP assays. The assays were performed in 96-well cluster plates.\nOn completion of ATP quantification, SOD was measured on each cellular sample following the SOD assay kit manufacturer's instructions. Briefly, the assay method is based on a water-soluble tetrazolium salt, WST-1 (2-(4-Iodophenyl)-3-(4-nitrophenyl)-5-(2,4-disulfophenyl)-2H-tetrazolium, monosodium salt) that produces a colourimetric formazan dye upon reduction with a superoxide anion which can be measured spectrophotometrically. The rate of the reduction with the superoxide anion is linearly related to […] xanthine oxidase (XO) activity. Thus, cellular samples (20 μl) were added to a reaction mixture (220 μl) containing WST-1 and XO and incubated for 20 mins at 37° C. Absorbance was measured at 450 nm using a 96-well microtitre plate reader."}, "HEK 293 cells": {"tested_on": "HEK 293 cells", "experiment": "Firefly Luciferase Bioluminescent ATP cell viability assay", "type": "cell-based, human", "details": "phenformin 250 μg/ml, MMS 50 μg/ml, doxorubicin 1 μg/ml", "protocol": "The assay was carried out in 96-well cluster plates on the same cell containing sample(s) as the p53R2 Renilla Luciferase Reporter Gene Assay. Traditionally bioluminescent ATP quantification methods use firefly luciferase to quantify ATP in the presence of inorganic magnesium ions and the substrate luciferin. The ATP assay described here uses a recombinant luciferase from a gene isolated from the Pennsylvania Firefly (Photuris pennsylvania). Following Renilla luciferase gene reporter activity quantification, firefly luciferase activity was measured in each well using the Cell-Titer Glo Luciferase ATP Quantification Assay Kit in accordance with the kit manufacturer's instructions. Briefly, the enzyme substrate was equilibrated to room temperature and reconstituted with the assay buffer. 100 μl of this reagent was added to cells which quenched the Renilla luciferase reaction and liberated the cellular contents by cellular lysis. […] It is based on the quantitative measurement of ATP which indicates the absolute number of metabolically active cells."}, "p53R2 (RE)": {"tested_on": "p53R2 (RE)", "experiment": "p53R2 Renilla Luciferase Reporter Gene Assay", "details": "mean Renilla RLU ÷ mean ATP response × 10^2, HEK 293, p53R2 (RE) pGL4.70 MinP [hRLuc], mannitol 1 mg/ml, doxorubicin 1 μg/ml, MMS 50 μg/ml, phenformin 250 μg/ml, hydrochloride", "protocol": "Constructs were transiently transfected into human HEK 293 cells using a lipid-based commercially available reagent (FuGENE HD Transfection Reagent, Roche Applied Science). Transfections were carried out following the manufacturer's instructions. Briefly, freshly passaged cells (20,000/well) were dispensed into Greiner Bio-One tissue-culture treated μ-clear (clear base), white, sterile, 96-well cluster plates and incubated overnight (37° C., 95% humidity, 5% CO2) in antibiotic-free media. Cells were transfected (100 ng DNA/well; 5 μl transfection complex/well) with pGL4.70 [hRLuc], p53R2 (RE) pGL4.70 [hRLuc], pGL4.70 MinP [hRLuc], or p53R2 (RE) pGL4.70 MinP [hRLuc] for 24 h, in antibiotic-free media. Several FuGENE HD Transfection Reagent: DNA ratios (3:2-8:2 in the final complex) were evaluated in order to determine the optimal level of transient transfection.\nRenilla luciferase activity was measured using the ViviRen Luciferase Live Cell Substrate following the Manufacturer's instructions. […] Microtitre plates were incubated for two minutes at room temperature before measuring luminescence on a Tecan Ultra (Tecan Corporation) in luminescence mode, integrating for 100 ms. Alternatively luminescence can be measured on a LEADseeker multi-modality instrument in luminescence mode (GE Healthcare)."}, "caspase-3": {"tested_on": "caspase-3", "experiment": "Caspase-3 (apoptosis) Assay", "type": "cell-based, human", "details": "mean Caspase-3 response (405 nm) ÷ mean ATP response × 10^8; HEK 293; mannitol 1 mg/ml, doxorubicin 1 μg/ml, MMS 50 μg/ml, phenformin 250 μg/ml", "protocol": "The assay was carried out using the same cell containing sample(s) as the p53R2 Renilla Luciferase Reporter Gene, the Firefly Luciferase Bioluminescent ATP and the superoxide assays. Once again, all of the assays were performed in 96-well cluster plates. Activation of caspase-3 plays a central role in the execution-phase of apoptosis. Thus, the caspase-3 assay will provide useful information on the mechanism of cellular toxicity. Following SOD measurement, caspase-3 was measured on each cellular sample in accordance with the Caspase-3 Assay Kit manufacturer's instructions. Briefly, the colorimetric assay is based on the hydrolysis of the peptide substrate acetyl-Asp-Glu-Val-Asp p-nitroanilide (Ac-DEVD-pNA) by caspase-3, resulting in the release of the p-nitroaniline (pNA) moiety which can be measured at 405 nm.\nFor the assay, cellular sample lysates (5 μl) were added to a reaction mixture containing caspase-3 substrate (Ac-DEVD-pNA, 95 μl) and samples were incubated for 2 h at 37° C. Absorbance was measured at 405 nm using a 96-well microtitre plate reader."}},
  "note": "Structures can show the parent of a compound that is named as a salt.",
  "data": [
    {"smiles": "[H]/N=C(/N)N/C(=N/[H])NCCc1ccccc1", "note": "[Phenformin, phenformin hydrochloride]", "values": [
      {"measurement": "Mean Stress Index", "setting": "superoxide dismutase", "result": 1.27},
      {"measurement": "ATP response (cytotoxicity)", "setting": "HEK 293 cells; FIG. 10e, 8:2 transfection", "result": "reduction in ATP response"},
      {"measurement": "ATP response (cytotoxicity)", "setting": "HEK 293 cells; FIG. 11e, 7:2 transfection", "result": "reduction in ATP response"},
      {"measurement": "Mean Genotoxic Index", "setting": "p53R2 (RE)", "result": 1.63},
      {"measurement": "Mean Genotoxic Index", "setting": "p53R2 (RE); listed as phenformin", "result": "low Genotoxic Index value"},
      {"measurement": "Mean Apoptotic Index", "setting": "caspase-3", "result": 6.13}
    ]}
  ]
}
